# According to the supplement of paper PMC8728848:
# Only a selection was taken, and the strongest signals are over-represented in it overall.
# How the values were obtained:
# Assay in all cases: glycan array binding signal (z-score within array); higher = stronger binding
# Conditions in all cases: glycan notation: IUPAC condensed, linker removed
# Fuc(a1-2)Gal(b1-3)GlcNAc = molecular target: Fuc(a1-2)Gal(b1-3)GlcNAc
# [1] = molecular target: Fuc(a1-2)Gal(b1-4)GlcNAc(b1-3)Gal(b1-4)GlcNAc(b1-2)Man(a1-3)[Fuc(a1-2)Gal(b1-4)GlcNAc(b1-3)Gal(b1-4)GlcNAc(b1-2)Man(a1-6)]Man(b1-4)GlcNAc(b1-4)GlcNAc
# [2] = molecular target: Fuc(a1-2)Gal(b1-4)GlcNAc(b1-3)GalNAc
# [3] = molecular target: Fuc(a1-2)Gal(b1-4)GlcNAc6S
# [4] = molecular target: Fuc(a1-2)[Gal(a1-3)]Gal(b1-4)GlcNAc(b1-2)Man(a1-3)[Fuc(a1-2)[Gal(a1-3)]Gal(b1-4)GlcNAc(b1-2)Man(a1-6)]Man(b1-4)GlcNAc(b1-4)[Fuc(a1-6)]GlcNAc
# [5] = molecular target: Fuc(a1-2)[Gal(a1-3)]Gal(b1-4)[Fuc(a1-3)]GlcNAc
# [6] = molecular target: Fuc(a1-2)[GalNAc(a1-3)]Gal(b1-3)GalNAc(b1-3)Gal(a1-4)Gal(b1-4)Glc
# [7] = molecular target: Fuc(a1-2)[GalNAc(a1-3)]Gal(b1-3)GlcNAc
# [8] = molecular target: Fuc(a1-3)[Gal(b1-4)]GlcNAc6S
# Gal(a1-3)Gal(b1-4)Glc = molecular target: Gal(a1-3)Gal(b1-4)Glc
# [9] = molecular target: Gal(a1-4)Gal(b1-4)GlcNAc(b1-2)Man(a1-3)[Gal(a1-4)Gal(b1-4)GlcNAc(b1-2)Man(a1-6)]Man(b1-4)GlcNAc(b1-4)GlcNAc
# Gal(b1-2)Gal = molecular target: Gal(b1-2)Gal
# [10] = molecular target: Gal(b1-3)GalNAc(b1-3)Gal(a1-4)Gal(b1-4)Glc
# [11] = molecular target: Gal(b1-3)GalNAc(b1-4)Gal(b1-4)Glc
# [12] = molecular target: Gal(b1-3)GalNAc(b1-4)[Neu5Ac(a2-3)]Gal(b1-4)Glc
# [13] = molecular target: Gal(b1-3)GlcNAc(a1-3)Gal(b1-4)GlcNAc
# [14] = molecular target: Gal(b1-3)GlcNAc(b1-3)Gal(b1-4)[Fuc(a1-3)]GlcNAc(b1-6)[Gal(b1-3)GlcNAc(b1-3)]Gal(b1-4)Glc
# Gal(b1-4)GlcNAc(b1-2)Man = molecular target: Gal(b1-4)GlcNAc(b1-2)Man
# [15] = molecular target: Gal(b1-4)GlcNAc(b1-2)Man(a1-3)[Gal(b1-4)GlcNAc(b1-2)Man(a1-6)][GlcNAc(b1-4)]Man(b1-4)GlcNAc(b1-4)[Fuc(a1-6)]GlcNAc
# [16] = molecular target: Gal(b1-4)GlcNAc(b1-2)Man(a1-6)[Man(a1-3)]Man(b1-4)GlcNAc(b1-4)GlcNAc
# [17] = molecular target: Gal(b1-4)GlcNAc(b1-3)Gal(b1-4)GlcNAc(b1-2)Man(a1-3)[Gal(b1-4)GlcNAc(b1-3)Gal(b1-4)GlcNAc(b1-2)Man(a1-6)]Man(b1-4)GlcNAc(b1-4)GlcNAc
# [18] = molecular target: Gal(b1-4)GlcNAc(b1-3)Gal(b1-4)GlcNAc(b1-2)Man(a1-3)[Gal(b1-4)GlcNAc(b1-3)Gal(b1-4)GlcNAc(b1-2)Man(a1-6)]Man(b1-4)GlcNAc(b1-4)[Fuc(a1-6)]GlcNAc
# [19] = molecular target: Gal(b1-4)GlcNAc(b1-3)Gal(b1-4)GlcNAc(b1-2)[Gal(b1-4)GlcNAc(b1-3)Gal(b1-4)GlcNAc(b1-6)]Man(a1-6)[Gal(b1-4)GlcNAc(b1-3)Gal(b1-4)GlcNAc(b1-2)Man(a1-3)]Man(b1-4)GlcNAc(b1-4)GlcNAc
# [20] = molecular target: Gal(b1-4)GlcNAc(b1-3)Gal(b1-4)GlcNAc(b1-3)Gal(b1-4)GlcNAc(b1-3)Gal(b1-4)GlcNAc(b1-3)Gal(b1-4)GlcNAc(b1-3)Gal(b1-4)GlcNAc(b1-2)Man(a1-3)[Gal(b1-4)GlcNAc(b1-3)Gal(b1-4)GlcNAc(b1-3)Gal(b1-4)GlcNAc(b1-3)Gal(b1-4)GlcNAc(b1-3)Gal(b1-4)GlcNAc(b1-3)Gal(b1-4)GlcNAc(b1-2)Man(a1-6)]Man(b1-4)GlcNAc(b1-4)GlcNAc
# [21] = molecular target: Gal(b1-4)GlcNAc(b1-3)Gal(b1-4)GlcNAc(b1-6)[Gal(b1-3)]GalNAc
# [22] = molecular target: Gal(b1-4)GlcNAc(b1-6)Gal(b1-4)GlcNAc
# Gal3S(b1-4)Glc = molecular target: Gal3S(b1-4)Glc
# [23] = molecular target: Gal3S(b1-4)[Fuc(a1-3)]Glc6S
# Gal4S6S(b1-4)GlcNAc = molecular target: Gal4S6S(b1-4)GlcNAc
# Gal6S(b1-3)GlcNAc6S = molecular target: Gal6S(b1-3)GlcNAc6S
# [24] = molecular target: GalNAc(a1-3)GalNAc(b1-3)Gal(a1-4)Gal(b1-4)Glc
# [25] = molecular target: GalNAc(b1-3)Gal(a1-6)Gal(b1-4)Glc
# [26] = molecular target: GlcNAc(b1-2)Gal(b1-3)GalNAc
# [27] = molecular target: GlcNAc(b1-2)Man(a1-3)[GlcNAc(b1-2)Man(a1-6)]Man(b1-4)GlcNAc(b1-4)[Fuc(a1-6)]GlcNAc
# [28] = molecular target: GlcNAc(b1-2)[GlcNAc(b1-6)]Man(a1-6)[GlcNAc(b1-4)][GlcNAc(b1-2)Man(a1-3)]Man(b1-4)GlcNAc(b1-4)GlcNAc
# [29] = molecular target: GlcNAc(b1-3)Gal(b1-4)GlcNAc(b1-2)Man(a1-3)[GlcNAc(b1-3)Gal(b1-4)GlcNAc(b1-2)Man(a1-6)]Man(b1-4)GlcNAc(b1-4)GlcNAc
# [30] = molecular target: GlcNAc(b1-3)Gal(b1-4)GlcNAc(b1-2)[GlcNAc(b1-3)Gal(b1-4)GlcNAc(b1-6)]Man(a1-6)[GlcNAc(b1-3)Gal(b1-4)GlcNAc(b1-2)Man(a1-3)]Man(b1-4)GlcNAc(b1-4)GlcNAc
# [31] = molecular target: GlcNAc(b1-3)Gal(b1-4)GlcNAc(b1-6)[GlcNAc(b1-3)Gal(b1-3)]GalNAc
# [32] = molecular target: GlcNAc(b1-4)Gal(b1-4)GlcNAc
# [33] = molecular target: GlcNAc(b1-4)[GlcNAc(b1-6)]GalNAc
# [34] = molecular target: GlcNAc(b1-6)Gal(b1-4)GlcNAc
# [35] = molecular target: Kdn(a2-3)Gal(b1-4)[Fuc(a1-3)]GlcNAc
# [36] = molecular target: Man(a1-2)Man(a1-3)[Man(a1-2)Man(a1-6)]Man
# [37] = molecular target: Neu5Ac(a2-3)Gal(b1-3)GlcNAc6S
# [38] = molecular target: Neu5Ac(a2-3)Gal(b1-4)GlcNAc(b1-2)Man
# [39] = molecular target: Neu5Ac(a2-3)Gal(b1-4)GlcNAc(b1-2)Man(a1-3)[GlcNAc(b1-4)][Neu5Ac(a2-3)Gal(b1-4)GlcNAc(b1-2)Man(a1-6)]Man(b1-4)GlcNAc(b1-4)GlcNAc
# [40] = molecular target: Neu5Ac(a2-3)Gal(b1-4)GlcNAc(b1-2)[Neu5Ac(a2-3)Gal(b1-4)GlcNAc(b1-6)]Man(a1-6)[Neu5Ac(a2-3)Gal(b1-4)GlcNAc(b1-2)Man(a1-3)]Man(b1-4)GlcNAc(b1-4)GlcNAc
# [41] = molecular target: Neu5Ac(a2-3)Gal(b1-4)GlcNAc(b1-3)Gal(b1-4)GlcNAc(b1-3)Gal(b1-4)GlcNAc
# [42] = molecular target: Neu5Ac(a2-3)Gal(b1-4)GlcNAc(b1-3)Gal(b1-4)GlcNAc(b1-6)[Gal(b1-3)]GalNAc
# [43] = molecular target: Neu5Ac(a2-3)Gal(b1-4)[Fuc(a1-3)]GlcNAc(b1-3)Gal(b1-4)[Fuc(a1-3)]GlcNAc(b1-3)Gal(b1-4)[Fuc(a1-3)]GlcNAc
# [44] = molecular target: Neu5Ac(a2-6)Gal(b1-4)GlcNAc(b1-2)Man(a1-3)[Gal(b1-4)GlcNAc(b1-2)Man(a1-6)]Man(b1-4)GlcNAc(b1-4)GlcNAc
# [45] = molecular target: Neu5Ac(a2-6)Gal(b1-4)GlcNAc(b1-2)Man(a1-3)[Neu5Ac(a2-6)Gal(b1-4)GlcNAc(b1-2)Man(a1-6)]Man(b1-4)GlcNAc(b1-4)[Fuc(a1-6)]GlcNAc
# [46] = molecular target: Neu5Ac(a2-6)GlcNAc(b1-4)GlcNAc
# [47] = molecular target: Neu5Ac(a2-8)Neu5Ac(a2-3)[GalNAc(b1-4)]Gal(b1-4)Glc
# [48] = molecular target: Neu5Gc(a2-3)Gal(b1-3)GlcNAc
binder,measurement,setting,value
LysM (Drosophila melanogaster) (protein) MSPILGYWKIKGLVQPTRLLLEYLEEKYEEHLYERDEGDKWRNKKFELGLEFPNLPYYIDGDVKLTQSMAIIRYIADKHNMLGGCPKERAEISMLEGAVLDIRYGVSRIAYSKDFETLKVDFLSKLPEMLKMFEDRLCHKTYLNGDHVTHPDFMLYDALDVVLYMDPMCLDAFPKLVCFKKRIEAIPQIDKYLKSSKYIAWPLQGWQATFGGGDHPPKSDLVPRGSELWMDDSEFMFNEKQSIRDSGRTLKRYGSTCCNSLRNNETLIRHIVEKTDTLQGIALKYGCTTEQIRRANRLFASDSLFLRQFLLVPVEKNSPYYPQVPGDSIAAFVARAIHRD,glycan array binding signal (z-score),Fuc(a1-2)Gal(b1-3)GlcNAc,0.084
same,glycan array binding signal (z-score),[1],0.124
same,glycan array binding signal (z-score),[2],1.48
same,glycan array binding signal (z-score),[3],0.214
same,glycan array binding signal (z-score),[4],-0.266
same,glycan array binding signal (z-score),[5],0.205
same,glycan array binding signal (z-score),[6],-0.561
same,glycan array binding signal (z-score),[7],-0.736
same,glycan array binding signal (z-score),[8],0.534
same,glycan array binding signal (z-score),Gal(a1-3)Gal(b1-4)Glc,1.95
same,glycan array binding signal (z-score),[9],1.59
same,glycan array binding signal (z-score),Gal(b1-2)Gal,1.82
same,glycan array binding signal (z-score),[10],0.834
same,glycan array binding signal (z-score),[11],-0.372
same,glycan array binding signal (z-score),[12],-0.514
same,glycan array binding signal (z-score),[13],-0.251
same,glycan array binding signal (z-score),[14],-0.827
same,glycan array binding signal (z-score),Gal(b1-4)GlcNAc(b1-2)Man,-0.115
same,glycan array binding signal (z-score),[15],-0.711
same,glycan array binding signal (z-score),[16],-0.644
same,glycan array binding signal (z-score),[17],3.71
same,glycan array binding signal (z-score),[18],0.915
same,glycan array binding signal (z-score),[19],3.79
same,glycan array binding signal (z-score),[20],0.241
same,glycan array binding signal (z-score),[21],0.494
same,glycan array binding signal (z-score),[22],-0.971
same,glycan array binding signal (z-score),Gal3S(b1-4)Glc,1
same,glycan array binding signal (z-score),[23],2.34
same,glycan array binding signal (z-score),Gal4S6S(b1-4)GlcNAc,0.152
same,glycan array binding signal (z-score),Gal6S(b1-3)GlcNAc6S,2.02
same,glycan array binding signal (z-score),[24],-0.309
same,glycan array binding signal (z-score),[25],-0.54
same,glycan array binding signal (z-score),[26],0.833
same,glycan array binding signal (z-score),[27],0.086
same,glycan array binding signal (z-score),[28],-0.805
same,glycan array binding signal (z-score),[29],1.23
same,glycan array binding signal (z-score),[30],1.87
same,glycan array binding signal (z-score),[31],-0.625
same,glycan array binding signal (z-score),[32],1.53
same,glycan array binding signal (z-score),[33],0.035
same,glycan array binding signal (z-score),[34],-0.074
same,glycan array binding signal (z-score),[35],-0.101
same,glycan array binding signal (z-score),[36],-0.391
same,glycan array binding signal (z-score),[37],-0.008
same,glycan array binding signal (z-score),[38],12.9
same,glycan array binding signal (z-score),[39],-1.12
same,glycan array binding signal (z-score),[40],2.6
same,glycan array binding signal (z-score),[41],-0.335
same,glycan array binding signal (z-score),[42],0.543
same,glycan array binding signal (z-score),[43],-0.011
same,glycan array binding signal (z-score),[44],-0.738
same,glycan array binding signal (z-score),[45],-0.548
same,glycan array binding signal (z-score),[46],0.476
same,glycan array binding signal (z-score),[47],-0.6
same,glycan array binding signal (z-score),[48],-0.137
